pKi: −log10 of the molar value.
Target: T1, Dihydrofolate reductase (Bos taurus, UniProt P00376)
T1 sequence (P00376 whole entry): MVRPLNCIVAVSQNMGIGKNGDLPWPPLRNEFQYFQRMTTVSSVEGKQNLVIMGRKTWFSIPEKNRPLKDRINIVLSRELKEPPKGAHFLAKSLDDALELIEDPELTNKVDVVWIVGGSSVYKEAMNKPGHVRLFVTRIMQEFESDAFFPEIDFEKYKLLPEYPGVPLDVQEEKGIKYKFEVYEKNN
Assay: Inhibition of dihydrofolate reductase from bovine liver

Row | Compound | pKi
1 | Nc1ncc(Cc2ccc([N+](=O)[O-])cc2)c(N)n1 | 5.02
2 | COc1ccc(Cc2cnc(N)nc2N)cc1 [5-(4-Methoxy-benzyl)-pyrimidine-2,4-diamine] | 4.92
3 | Nc1ncc(Cc2ccc(Br)cc2)c(N)n1 | 5.17
4 | Nc1ncc(Cc2cccc(Br)c2)c(N)n1 | 5.54
5 | Nc1ncc(Cc2ccc(F)cc2)c(N)n1 | 5.18
6 | CN(C)c1ccc(Cc2cnc(N)nc2N)cc1 | 4.76
7 | Nc1ncc(Cc2cccc(Cl)c2)c(N)n1 | 5.47

Source: BindingDB's records for doi:10.1021/jm00137a012 (1981)
